{"source": "ChEMBL document CHEMBL4052706", "about": "“Isolation, structure elucidation, and synthesis of antiplasmodial quinolones from Crinum firmifolium” (Bioorg Med Chem, 2017)", "assay": "Selectivity ratio of IC50 for human A2780 cells to IC50 for chloroquine/mefloquine-resistant Plasmodium falciparum Dd2"}
{"smiles": "CCCCCCCc1cc(=O)c2ccccc2[nH]1", "values": [{"measurement": "Ratio IC50", "value": 26.6}]}
